{"source": "patent US20220218639A1", "about": "“TUNEABLE DELIVERY OF NANOPARTICLE BOUND ACTIVE PLASMIN FOR THE TREATMENT OF THROMBOSIS” (Indiana University Research and Technology Corporation, priority 2014, published 2022)", "target": "δ-plasmin (Homo sapiens, UniProt P00747, DEL181-559)", "assay": "S-2251 inhibition assay (Dixon plot), δ-plasmin", "format": "biochemical", "settings": "read-out: Ki (δ-plasmin), S-2251 100, 350, 750 μM, enzyme 1.0 μg/mL, PBS pH 7.4, unit inferred", "data": [{"molecule": "N=C(N)c1ccc(OCCCCCOc2ccc(C(=N)N)cc2)cc1", "note": "[Pentamidine]", "values": [{"measurement": "Ki", "value": 4, "unit": "µM"}]}]}
